The values below come from article PMC4423116, “Tarantula toxins use common surfaces for interacting with Kv and ASIC ion channels” (eLife, 2015).

In the assay the target is T1, Kv2.1 channel (Rattus norvegicus, UniProt P15387).
T1 construct: expressed in transfected cells; host or cells: Xenopus laevis oocytes, cRNA injection
T1 sequence (P15387 1-857): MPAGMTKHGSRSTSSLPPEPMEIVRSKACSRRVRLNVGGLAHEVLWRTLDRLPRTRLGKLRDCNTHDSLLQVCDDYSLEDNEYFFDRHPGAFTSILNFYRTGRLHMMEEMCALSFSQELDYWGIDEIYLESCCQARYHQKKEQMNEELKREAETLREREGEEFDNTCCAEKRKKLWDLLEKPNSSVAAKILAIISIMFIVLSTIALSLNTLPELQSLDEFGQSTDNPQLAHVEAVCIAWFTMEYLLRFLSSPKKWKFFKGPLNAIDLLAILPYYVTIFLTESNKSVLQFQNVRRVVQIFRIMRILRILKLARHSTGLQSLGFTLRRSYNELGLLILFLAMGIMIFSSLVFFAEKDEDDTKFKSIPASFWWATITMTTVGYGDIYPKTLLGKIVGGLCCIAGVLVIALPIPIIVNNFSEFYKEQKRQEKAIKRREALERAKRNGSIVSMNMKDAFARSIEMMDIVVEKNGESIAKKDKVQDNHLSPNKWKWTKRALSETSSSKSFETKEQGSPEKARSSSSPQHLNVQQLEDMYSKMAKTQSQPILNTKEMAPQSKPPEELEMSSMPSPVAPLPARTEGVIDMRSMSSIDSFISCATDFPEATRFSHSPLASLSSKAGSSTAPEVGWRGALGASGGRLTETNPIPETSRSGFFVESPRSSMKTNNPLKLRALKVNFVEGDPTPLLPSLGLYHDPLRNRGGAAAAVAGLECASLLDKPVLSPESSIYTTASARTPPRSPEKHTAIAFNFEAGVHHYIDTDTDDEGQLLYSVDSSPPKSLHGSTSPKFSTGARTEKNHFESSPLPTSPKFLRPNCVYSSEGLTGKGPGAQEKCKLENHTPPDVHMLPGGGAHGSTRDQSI
The assay is described as follows: Inhibition of Kv2.1 channel currents in Xenopus oocytes (two-electrode voltage clamp), apparent affinity. The class given is cell-based. The settings on record: Kv2.1 in oocytes; for ∆∆G (perturbation energy): from apparent Kd of mutant vs GxTx-1E(Nle); for Kd^mut/Kd^wt: ratio of apparent Kd of mutant to GxTx-1E(Nle). In general terms: In two-electrode clamp one electrode senses voltage and the other passes current.

Turning to `CCCC[C@H](NC(=O)[C@@H]1CCCN1C(=O)[C@H](Cc1ccccc1)NC(=O)[C@H](CC(N)=O)NC(=O)[C@@H]1CSSC[C@@H]2NC(=O)[C@H](C)NC(=O)[C@@H]3CCCN3C(=O)[C@H](CCCCN)NC(=O)CNC(=O)[C@H](CO)NC(=O)CNC(=O)[C@@H]3CSSC[C@H](NC(=O)[C@H](C(C)C)NC(=O)[C@H](Cc4ccc(O)cc4)NC(=O)[C@H](CCCCN)NC(=O)[C@@H]4CCCN4C(=O)[C@H](CSSC[C@H](NC(=O)[C@H](CCC(=O)O)NC(=O)CNC(=O)[C@@H](N)CCC(=O)O)C(=O)NCC(=O)NCC(=O)N[C@@H](Cc4ccccc4)C(=O)N[C@@H](Cc4c[nH]c5ccccc45)C(=O)N[C@@H](Cc4c[nH]c5ccccc45)C(=O)N[C@@H](CCCCN)C(=O)N3)NC2=O)C(=O)N[C@@H](C)C(=O)N2CCC[C@H]2C(=O)N[C@@H](CCCCN)C(=O)N[C@@H](Cc2c[nH]c3ccccc23)C(=O)NCC(=O)N[C@@H](CC(C)C)C(=O)N1)C(=O)N1CCC[C@H]1C(=O)O` [Toxin S25A], the “∆∆G (perturbation energy)” value is 0.98 kcal/mol and the “Kd^mut/Kd^wt” value was 5.2.

`CCCC[C@H](NC(=O)[C@@H]1CCCN1C(=O)[C@H](Cc1ccccc1)NC(=O)[C@H](CC(N)=O)NC(=O)[C@@H]1CSSC[C@@H]2NC(=O)[C@H](C)NC(=O)[C@@H]3CCCN3C(=O)[C@H](CCCCN)NC(=O)CNC(=O)[C@H](CO)NC(=O)CNC(=O)[C@@H]3CSSC[C@H](NC(=O)[C@H](C(C)C)NC(=O)[C@H](Cc4ccc(O)cc4)NC(=O)[C@H](CCCCN)NC(=O)[C@@H]4CCCN4C(=O)[C@H](CSSC[C@H](NC(=O)[C@H](CCC(=O)O)NC(=O)CNC(=O)[C@@H](N)CCC(=O)O)C(=O)NCC(=O)NCC(=O)N[C@@H](Cc4ccccc4)C(=O)N[C@@H](Cc4c[nH]c5ccccc45)C(=O)N[C@@H](Cc4c[nH]c5ccccc45)C(=O)N[C@@H](CCCCN)C(=O)N3)NC2=O)C(=O)N[C@@H](CO)C(=O)N2CCC[C@H]2C(=O)N[C@@H](CCCCN)C(=O)N[C@@H](Cc2c[nH]c3ccccc23)C(=O)NCC(=O)N[C@@H](CC(C)C)C(=O)N1)C(=O)N[C@@H](C)C(=O)O` [Toxin P36A]: the “∆∆G (perturbation energy)” value came out at 0.07 kcal/mol and the “Kd^mut/Kd^wt” value was determined as 1.1.

On to `CCCC[C@H](NC(=O)[C@@H]1CCCN1C(=O)[C@H](Cc1ccccc1)NC(=O)[C@H](CC(N)=O)NC(=O)[C@@H]1CSSC[C@@H]2NC(=O)[C@H](C)NC(=O)[C@@H]3CCCN3C(=O)[C@H](CCCCN)NC(=O)CNC(=O)[C@H](CO)NC(=O)[C@H](C)NC(=O)[C@@H]3CSSC[C@H](NC(=O)[C@H](C(C)C)NC(=O)[C@H](Cc4ccc(O)cc4)NC(=O)[C@H](CCCCN)NC(=O)[C@@H]4CCCN4C(=O)[C@H](CSSC[C@H](NC(=O)[C@H](CCC(=O)O)NC(=O)CNC(=O)[C@@H](N)CCC(=O)O)C(=O)NCC(=O)NCC(=O)N[C@@H](Cc4ccccc4)C(=O)N[C@@H](Cc4c[nH]c5ccccc45)C(=O)N[C@@H](Cc4c[nH]c5ccccc45)C(=O)N[C@@H](CCCCN)C(=O)N3)NC2=O)C(=O)N[C@@H](CO)C(=O)N2CCC[C@H]2C(=O)N[C@@H](CCCCN)C(=O)N[C@@H](Cc2c[nH]c3ccccc23)C(=O)NCC(=O)N[C@@H](CC(C)C)C(=O)N1)C(=O)N1CCC[C@H]1C(=O)O` [Toxin G12A], for which the “∆∆G (perturbation energy)” value worked out at 2.71 kcal/mol and the “Kd^mut/Kd^wt” value is 97.1.

With `CCCC[C@H](NC(=O)[C@@H]1CCCN1C(=O)[C@H](Cc1ccccc1)NC(=O)[C@H](CC(N)=O)NC(=O)[C@@H]1CSSC[C@@H]2NC(=O)[C@H](C)NC(=O)[C@@H]3CCCN3C(=O)[C@H](CCCCN)NC(=O)CNC(=O)[C@H](C)NC(=O)CNC(=O)[C@@H]3CSSC[C@H](NC(=O)[C@H](C(C)C)NC(=O)[C@H](Cc4ccc(O)cc4)NC(=O)[C@H](CCCCN)NC(=O)[C@@H]4CCCN4C(=O)[C@H](CSSC[C@H](NC(=O)[C@H](CCC(=O)O)NC(=O)CNC(=O)[C@@H](N)CCC(=O)O)C(=O)NCC(=O)NCC(=O)N[C@@H](Cc4ccccc4)C(=O)N[C@@H](Cc4c[nH]c5ccccc45)C(=O)N[C@@H](Cc4c[nH]c5ccccc45)C(=O)N[C@@H](CCCCN)C(=O)N3)NC2=O)C(=O)N[C@@H](CO)C(=O)N2CCC[C@H]2C(=O)N[C@@H](CCCCN)C(=O)N[C@@H](Cc2c[nH]c3ccccc23)C(=O)NCC(=O)N[C@@H](CC(C)C)C(=O)N1)C(=O)N1CCC[C@H]1C(=O)O` [Toxin S13A], the “∆∆G (perturbation energy)” value stood at 0.53 kcal/mol and the “Kd^mut/Kd^wt” value stood at 2.4.

For the compound `CCCC[C@H](NC(=O)[C@@H]1CCCN1C(=O)[C@H](Cc1ccccc1)NC(=O)[C@H](CC(N)=O)NC(=O)[C@@H]1CSSC[C@@H]2NC(=O)[C@H](C)NC(=O)[C@@H]3CCCN3C(=O)[C@H](C)NC(=O)CNC(=O)[C@H](CO)NC(=O)CNC(=O)[C@@H]3CSSC[C@H](NC(=O)[C@H](C(C)C)NC(=O)[C@H](Cc4ccc(O)cc4)NC(=O)[C@H](CCCCN)NC(=O)[C@@H]4CCCN4C(=O)[C@H](CSSC[C@H](NC(=O)[C@H](CCC(=O)O)NC(=O)CNC(=O)[C@@H](N)CCC(=O)O)C(=O)NCC(=O)NCC(=O)N[C@@H](Cc4ccccc4)C(=O)N[C@@H](Cc4c[nH]c5ccccc45)C(=O)N[C@@H](Cc4c[nH]c5ccccc45)C(=O)N[C@@H](CCCCN)C(=O)N3)NC2=O)C(=O)N[C@@H](CO)C(=O)N2CCC[C@H]2C(=O)N[C@@H](CCCCN)C(=O)N[C@@H](Cc2c[nH]c3ccccc23)C(=O)NCC(=O)N[C@@H](CC(C)C)C(=O)N1)C(=O)N1CCC[C@H]1C(=O)O` [Toxin K15A], the “∆∆G (perturbation energy)” value was found to be 0.77 kcal/mol and the “Kd^mut/Kd^wt” value amounted to 3.7.

On to `CCCC[C@H](NC(=O)[C@@H]1CCCN1C(=O)[C@H](Cc1ccccc1)NC(=O)[C@H](C)NC(=O)[C@@H]1CSSC[C@@H]2NC(=O)[C@H](C)NC(=O)[C@@H]3CCCN3C(=O)[C@H](CCCCN)NC(=O)CNC(=O)[C@H](CO)NC(=O)CNC(=O)[C@@H]3CSSC[C@H](NC(=O)[C@H](C(C)C)NC(=O)[C@H](Cc4ccc(O)cc4)NC(=O)[C@H](CCCCN)NC(=O)[C@@H]4CCCN4C(=O)[C@H](CSSC[C@H](NC(=O)[C@H](CCC(=O)O)NC(=O)CNC(=O)[C@@H](N)CCC(=O)O)C(=O)NCC(=O)NCC(=O)N[C@@H](Cc4ccccc4)C(=O)N[C@@H](Cc4c[nH]c5ccccc45)C(=O)N[C@@H](Cc4c[nH]c5ccccc45)C(=O)N[C@@H](CCCCN)C(=O)N3)NC2=O)C(=O)N[C@@H](CO)C(=O)N2CCC[C@H]2C(=O)N[C@@H](CCCCN)C(=O)N[C@@H](Cc2c[nH]c3ccccc23)C(=O)NCC(=O)N[C@@H](CC(C)C)C(=O)N1)C(=O)N1CCC[C@H]1C(=O)O` [Toxin N32A], for which the “∆∆G (perturbation energy)” value came out at 1.01 kcal/mol and the “Kd^mut/Kd^wt” value stood at 5.5.

Regarding `CCCC[C@H](NC(=O)[C@@H]1CCCN1C(=O)[C@H](Cc1ccccc1)NC(=O)[C@H](CC(N)=O)NC(=O)[C@@H]1CSSC[C@@H]2NC(=O)[C@H](C)NC(=O)[C@@H]3CCCN3C(=O)[C@H](CCCCN)NC(=O)CNC(=O)[C@H](CO)NC(=O)CNC(=O)[C@@H]3CSSC[C@H](NC(=O)[C@H](C(C)C)NC(=O)[C@H](C)NC(=O)[C@H](CCCCN)NC(=O)[C@@H]4CCCN4C(=O)[C@H](CSSC[C@H](NC(=O)[C@H](CCC(=O)O)NC(=O)CNC(=O)[C@@H](N)CCC(=O)O)C(=O)NCC(=O)NCC(=O)N[C@@H](Cc4ccccc4)C(=O)N[C@@H](Cc4c[nH]c5ccccc45)C(=O)N[C@@H](Cc4c[nH]c5ccccc45)C(=O)N[C@@H](CCCCN)C(=O)N3)NC2=O)C(=O)N[C@@H](CO)C(=O)N2CCC[C@H]2C(=O)N[C@@H](CCCCN)C(=O)N[C@@H](Cc2c[nH]c3ccccc23)C(=O)NCC(=O)N[C@@H](CC(C)C)C(=O)N1)C(=O)N1CCC[C@H]1C(=O)O` [Toxin Y22A], the “∆∆G (perturbation energy)” value came to 3.00 kcal/mol and the “Kd^mut/Kd^wt” value is on record as 157.7.
